UUG fidelity – yeast start codon fidelity modulation | S. cerevisiae UUG-firefly luciferase reporter, luminescence/redox ratio | activity score, % at 18.7 µM | 350,000 tested, 0.13% active;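 active = replicate mean at a twofold rise or more, about +100% in these data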;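 also: firefly luciferase made from a UUG start codon reports start codon fidelity; reporter light over untreated wells divided by growth signal over untreated wells; some hits fall short of that in this replicate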
CDK5 p35 inh – CDK5/p35 (human) kinase inhibition; Recombinant CDK5/p35, ADP-Glo luminescence, 60 min; Q00535+Q15078; AID 488839; inhibition, % at 10 µM; hit rate 0.01% among 330,000;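 active = highest replicate inhibition of at least 50% and at least 75% of replicates reaching 50%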;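 note: plate controls were DMSO neutral control for no effect and GW8510 at 10 µM for full effect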
Cneo AK release – Cryptococcus neoformans lysis via adenylate kinase release. hit rate 0.2% among 360,000. AID 651654. lysis activity, % at 15 µM. C. neoformans lysis, adenylate kinase release luminescence, 4 h; normalised: neutral wells 0, clomiphene wells 100;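 active = mean lysis activity across replicates of at least 80%, whatever share of replicates individually reach that level; inactive = mean lysis activity below 80%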
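Assay system: C. neoformans cells. Amount: yeast cell density of 5 × 10^6 cells/mL. Technique: AK luminescence. Buffer or medium: YPD. Times: static 4 h at 37 °C with compound, 1 h detection. Dosing: single-point compound dose. Read-out: lysis from increased AK signal.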
Statin myotox sup – suppression of simvastatin myotoxicity | C2C12 myotubes + simvastatin, ATP luminescence, 48 h; scaled: DMSO 0, geranylgeraniol control 100 | rescue of ATP level, % at 7.49 µM | hit rate 0.78% among 330,000 | AID 602340;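 active = mean ATP rescue above about 67%, or every replicate alone reaching that limit, limit read from the data, passing the limit was not always enough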;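 note: myotubes were challenged with 10 µM simvastatin during compound exposure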
Rtt109 Vps75 – blocks Candida albicans Rtt109/Vps75 acetyltransferase activity; AID 540336; purified Rtt109/Vps75, ThioGlo CoA-SH fluorescence, 4 h; inhibition, % at 34.9 µM; hit rate 0.16% among 330,000; Q5AAJ8;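 active = inhibition of at least 50% in every replicate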
The depositor's hits bear a star; . = not tested or not shown; ! = not confirmed by another sample. An excerpt weighted towards active compounds, which were near 1% of everything screened.

The line under a structure holds: UUG fidelity, CDK5 p35 inh, Cneo AK release, Statin myotox sup, Rtt109 Vps75
CCCC(=O)N(c1ccc2oc(=O)sc2c1)S(=O)(=O)c1cccs1
    -5, 2, -4, 41, 124*
CC(=O)N(c1ccc2oc(=O)sc2c1)S(=O)(=O)c1ccccc1
    ., 1, ., ., 67*
COc1ccc(OC)c(S(=O)(=O)N(C(C)=O)c2ccc3oc(=O)sc3c2)c1
    ., -1, ., ., -4
CN(CC(=O)O)S(=O)(=O)c1cccs1
    -9, -1, 0, ., 0
COC(=O)c1c2oc(c1C(=O)OC)C(=O)N[C@H](Cc1ccccc1)Cn1cc(nn1)[C@H](Cc1ccccc1)NC(=O)N[C@H](CO)CC2
    71, ., -2, ., .
O=C(C[C@@H]1CC[C@@H]2[C@H](COC[C@@H](O)CN2C(=O)Nc2ccc(Cl)cc2)O1)NCCc1ccncc1
    ., ., -1, -8, .
O=C(Nc1ccc2c(c1)[C@H]1C[C@@H](CC(=O)N3CCc4ccccc4C3)O[C@H](CO)[C@H]1O2)C1CCOCC1
    ., ., 40, -6, .
C[C@H](CO)N1C[C@H](C)[C@H](CN(C)Cc2ccccn2)Oc2ncc(C#Cc3cccc(F)c3)cc2C1=O
    -11, ., 1, -16, .
Cn1c(=O)n(Cc2ccccc2)c(=O)c2c1nc1n2CCCN1Cc1ccccc1
    -10, -1, -3, 116*, 11
Cc1ccc(Cn2c(=O)c3c(nc4n3CCCN4Cc3ccccc3)n(C)c2=O)cc1
    -9, 3, -4, 14, 6
C[C@H]1CN([C@@H](C)CO)C(=O)Cc2cc(NC(=O)Nc3cccc4ccccc34)ccc2O[C@H]1CN(C)S(=O)(=O)c1cccs1
    33, ., 101*, 24, .
C[C@@H]1CN([C@H](C)CO)C(=O)Cc2cc(NC(=O)Nc3cccc4ccccc34)ccc2O[C@@H]1CN(C)S(=O)(=O)c1cccs1
    6, ., 0, 75*, .
C[C@@H]1CN([C@@H](C)CO)C(=O)c2cccc(NC(=O)C3CCOCC3)c2O[C@H]1CN(C)S(C)(=O)=O
    -14, ., -3, 8, .
C[C@@]12CCC=C[C@H]1[C@H](c1ccc3ccccc3c1)N(Cc1ccccc1)C2=O
    -29, -1, -4, 2, 5
C[C@@]12CCC=C[C@H]1[C@H](c1ccc3ccccc3c1Br)N(Cc1ccccc1)C2=O
    -20, 1, 1, 78*, 6
COC(=O)[C@@H](NC(=O)NC(C)CCc1ccccc1)C(C)C (some centres not stated)
    -12, 0, 0, 93*, -5
C[C@@H]1CN([C@H](C)CO)C(=O)c2cccc(NS(=O)(=O)c3cccs3)c2O[C@@H]1CN(C)Cc1ccc(-c2ccccc2)cc1
    3, ., -1, 70*, .
Cc1noc(C)c1NC(=O)N(C)C[C@@H]1Oc2c(NC(=O)Nc3ccc4c(c3)OCO4)cccc2C(=O)N([C@@H](C)CO)C[C@@H]1C
    2, ., -7, -15, .
C[C@@H]1CN([C@H](C)CO)C(=O)c2cccc(NS(=O)(=O)c3cccs3)c2O[C@@H]1CN(C)Cc1ccc(Oc2ccccc2)cc1
    6, ., 2, 79*, .
C[C@@H]1CN([C@@H](C)CO)C(=O)c2cccc(NC(=O)C3CC3)c2O[C@@H]1CN(C)Cc1ccc(C(=O)O)cc1
    -1, ., 53, 23, .
Cc1noc(C)c1NC(=O)N(C)C[C@H]1Oc2c(NC(=O)Nc3ccc4c(c3)OCO4)cccc2C(=O)N([C@H](C)CO)C[C@@H]1C
    -2, 1, 1, 83*!, -6
C[C@@H]1CN([C@H](C)CO)C(=O)c2cccc(NC(=O)C3CC3)c2O[C@H]1CN(C)Cc1ccc(C(=O)O)cc1
    22, ., 97*, 0, .
C[C@H]1CN([C@@H](C)CO)C(=O)c2cccc(NS(C)(=O)=O)c2O[C@@H]1CN(C)Cc1ccc(-c2ccccc2)cc1
    25, ., 111*, 43, .
Cc1noc(C)c1NC(=O)Nc1cccc2c1O[C@@H](CN(C)S(=O)(=O)c1cn(C)cn1)[C@@H](C)CN([C@@H](C)CO)C2=O
    0, ., 105*, -7, .
C[C@H](CO)N1C[C@H](C)[C@H](CN(C)Cc2ccc(C(F)(F)F)cc2)Oc2c(NC(=O)Nc3cccc4ccccc34)cccc2C1=O
    7, ., 4, 81*, .
Cc1noc(C)c1NC(=O)Nc1cccc2c1O[C@H](CN(C)S(=O)(=O)c1cn(C)cn1)[C@@H](C)CN([C@H](C)CO)C2=O
    5, 0, -1, 14, -3
Cc1noc(C)c1NC(=O)Nc1cccc2c1O[C@H](CN(C)Cc1ccc(-c3ccccc3)cc1)[C@@H](C)CN([C@H](C)CO)C2=O
    15, ., -1, 78*, .
Cc1noc(C)c1NC(=O)Nc1cccc2c1O[C@H](CN(C)Cc1ccccc1)[C@@H](C)CN([C@H](C)CO)C2=O
    -2, ., 40, -9, .
C[C@@H]1CN([C@H](C)CO)C(=O)c2cccc(NC(=O)Nc3ccccc3)c2O[C@H]1CN(C)Cc1ccc(C(F)(F)F)cc1
    7, ., -1, 39, .
Cc1noc(C)c1S(=O)(=O)Nc1ccc2c(c1)C(=O)N([C@H](C)CO)C[C@@H](C)[C@@H](CN(C)C(=O)Nc1ccc3c(c1)OCO3)O2
    4, ., 19, -17, .
C[C@H](CO)N1C[C@H](C)[C@@H](CN(C)Cc2ccc(-c3ccccc3)cc2)Oc2c(NC(=O)c3ccncc3)cccc2C1=O
    14, -1, 0, -9, 10
C[C@@H]1CN([C@@H](C)CO)C(=O)c2cccc(NC(=O)c3ccc(-c4nccs4)cc3)c2O[C@@H]1CN(C)Cc1ccc(C(F)(F)F)cc1
    -2, ., 4, 74*, .
C[C@@H]1CN([C@H](C)CO)C(=O)c2cccc(NC(=O)c3ccc(-c4nccs4)cc3)c2O[C@@H]1CN(C)Cc1ccc(C(F)(F)F)cc1
    0, ., 2, 41, .
C[C@H](CO)N1C[C@H](C)[C@H](CN(C)Cc2ccc(-c3ccccc3)cc2)Oc2c(NC(=O)c3ccncc3)cccc2C1=O
    20, ., 111*, -20, .
COc1cccc(S(=O)(=O)Nc2ccc3c(c2)[C@H]2C[C@@H](CC(=O)N4CCCCC4)O[C@H](CO)[C@H]2O3)c1
    ., ., -2, 1, .
CC(C)CC(=O)N(Cc1ccc(F)cc1)C1CCS(=O)(=O)C1 (configuration not stated)
    1, 1, -7, ., 1
CCCCC(=O)N(Cc1ccc(F)cc1)C1CCS(=O)(=O)C1 (configuration not stated)
    3, 2, 0, 87*, -4
C/C(=N/NC(=O)c1ccc2c(c1)OCO2)c1cccc(NC(=O)C(C)(C)C)c1
    -17, 0, 3, 111*, 8
C/C(=N/NC(=O)c1ccc2c(c1)OCO2)c1cccc([N+](=O)[O-])c1
    4, 1, 0, -4, 6
CCNC(=O)C[C@@H]1CC[C@H]2[C@H](COc3ccc(NC(=O)Nc4c(C)noc4C)cc3C(=O)N2C)O1
    6, ., 0, 2, .

Structures shown so far with a CF3 group (four):
The line under a structure holds: UUG fidelity, CDK5 p35 inh, Cneo AK release, Statin myotox sup, Rtt109 Vps75
C[C@H](CO)N1C[C@H](C)[C@H](CN(C)Cc2ccc(C(F)(F)F)cc2)Oc2c(NC(=O)Nc3cccc4ccccc34)cccc2C1=O
    7, ., 4, 81*, .
C[C@@H]1CN([C@H](C)CO)C(=O)c2cccc(NC(=O)Nc3ccccc3)c2O[C@H]1CN(C)Cc1ccc(C(F)(F)F)cc1
    7, ., -1, 39, .
C[C@@H]1CN([C@@H](C)CO)C(=O)c2cccc(NC(=O)c3ccc(-c4nccs4)cc3)c2O[C@@H]1CN(C)Cc1ccc(C(F)(F)F)cc1
    -2, ., 4, 74*, .
C[C@@H]1CN([C@H](C)CO)C(=O)c2cccc(NC(=O)c3ccc(-c4nccs4)cc3)c2O[C@@H]1CN(C)Cc1ccc(C(F)(F)F)cc1
    0, ., 2, 41, .

Source: PubChem BioAssay (Broad Institute)
